This assay addresses DOR-1 (delta) (Mus musculus, UniProt P32300). The assay can be described thus: Competition binding against 125I-BNtxA in CHO cells stably expressing DOR-1.

The chains behind the UniProt entries cited, without tags or fusion partners.
UniProt P32300, whole entry: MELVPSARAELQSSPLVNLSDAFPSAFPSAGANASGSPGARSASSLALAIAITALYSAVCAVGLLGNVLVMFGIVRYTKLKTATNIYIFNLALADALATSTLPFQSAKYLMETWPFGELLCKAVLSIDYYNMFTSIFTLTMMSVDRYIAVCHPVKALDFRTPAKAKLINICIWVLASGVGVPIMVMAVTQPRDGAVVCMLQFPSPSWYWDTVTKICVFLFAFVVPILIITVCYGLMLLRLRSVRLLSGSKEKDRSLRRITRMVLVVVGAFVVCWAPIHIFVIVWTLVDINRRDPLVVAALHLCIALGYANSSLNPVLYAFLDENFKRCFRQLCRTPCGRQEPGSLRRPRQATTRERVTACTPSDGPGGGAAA

For orientation: Ki means the dissociation constant of the complex between target and ligand, obtained from inhibition or displacement. Higher therefore signals a looser hold on the target. The compound `C=CCN1CC[C@]23c4c5ccc(O)c4O[C@H]2[C@H](NC(=O)CCCCCCCCCCC)CC[C@@]3(O)[C@H]1C5` [Compound 35, 17-Allyl-3,14β-dihydroxy-4,5α-epoxy-6β-(dodecylamido)morphinan] displayed a Ki of 15.2 ± 0.38 nM.

The values are drawn from article PMC3412067 (Journal of medicinal chemistry, 2012).
